The source of these data is PubChem BioAssay AID1688 (National Center for Advancing Translational Sciences (NCATS), 2009).

The list shows a part of the results, in another mix than the full data. Records with an inconclusive call do not appear. Where a call stands in place of a potency, no number is given. Active and inactive are the calls of the source. The call rests on the fitted dose curve; in most records, active means well fitted inhibition curve with a large enough effect; inconclusive means small, poorly fitted or top-dose-only effect, or effect the other way; inactive means no such curve, though single readings can be large or run the other way.
Potency means the concentration at half of the fitted maximal effect.

The test in a line: qHTS Multiplex Assay to Identify Dual Action Probes in a Cell Model of Huntington: Aggregate Formation (GFP). Further: nearly all actives have a fitted effect of over 60% in size. To be noted: PC12 HttQ103-GFP aggregates, Acumen cytometry, 40 h; series mostly up to 9.22 µM.
`O=[N+]([O-])c1ccc(Nc2ccc(Oc3ccc([N+](=O)[O-])cc3[N+](=O)[O-])cc2)c([N+](=O)[O-])c1`: the Potency result is “inactive”.
The result for `Cc1cc(SC(NC=O)C(Cl)(Cl)Cl)ncn1` (configuration not stated) reads “inactive”; that for `O=P(Nc1ccccn1)(c1cccc2ccccc12)c1cccc2ccccc12`, “inactive”; that for `CCOC(=O)Nc1cccc([As](=O)(O)O)c1`, “inactive”.
With `Cc1cc(SC(NC(=O)c2ccccc2)C(Cl)(Cl)Cl)nc(C(C)C)n1` (configuration not stated), the Potency entry is “inactive”.
For the molecule `CCOC(=O)Nc1ccc([As](=O)(O)O)c(O)c1`, the Potency entry was “inactive”.
The result for `CCC(C)N(CC(C)C)C(=S)SC(NC(C)=O)C(Cl)(Cl)Cl` (configuration not stated) reads “inactive”; that for `CCOC(=O)c1ccc(NC(=O)C(C)(CCl)SC)cc1` (configuration not stated), “inactive”; that for `O=C(COc1ccccc1)OC1CN2CCC1CC2` (configuration not stated), “inactive”.
In the case of `COP1(=S)c2c(C)nn(CCC#N)c2N=C(c2ccc(F)cc2)N1C` (configuration not stated), the Potency result was “inactive”.
The value for `COc1ccc(N/C(=N/P(=O)(N2CCOCC2)N2CCOCC2)N2CCOCC2)cc1` was “inactive”.
Consider `COc1ccc2nc(NP(=O)(c3ccccc3)c3ccccc3)sc2c1`, for which the Potency entry is “inactive”.
The value for `COc1cc(I)ccc1[As](=O)(O)O` was “inactive”; that for `O=C(OC1CN2CCC1CC2)C12CC3CC(CC(C3)C1)C2` (configuration not stated) was “inactive”.
For the molecule `Cc1cc(=O)[nH]c(N[N+](=O)[O-])n1`, the Potency result is “inactive”.
With `CC(C)NC(=O)NP(=O)(Oc1ccccc1)Oc1ccccc1`, the Potency entry is “inactive”.
The value for `CCN(CC)C(=S)SC(NC=O)C(Cl)(Cl)Cl` (configuration not stated) was “inactive”; that for `CC(C)c1ccc(OP(=O)(Nc2ccccn2)Oc2ccccc2F)cc1` (configuration not stated) was “inactive”; that for `Cc1ccc2nc3c(c(C)c2c1)CC(C(Cl)Cl)S3` (configuration not stated) was “inactive”.
The result for `Cc1ccc(OP(=O)(Nc2ccc([N+](=O)[O-])cn2)Oc2ccc(C)cc2)cc1` reads “inactive”.
Turning to `O=[As](O)(c1ccc(O)cc1)c1ccccc1O`, the Potency result was “inactive”.
`C[As](=O)(O)c1cccc(C(=O)O)c1`: the Potency result was “inactive”.
The result for `O=[N+]([O-])c1ccc2c(c1)nnn2O` reads “inactive”; that for `CN(C(=O)Cc1ccccc1)[C@@H]1CC[C@]2(CCCO2)C[C@H]1N1CCCC1`, “inactive”.
On to `CCOP1(=S)c2c(C)nn(CCC#N)c2N=C(c2ccc(F)cc2)N1C` (configuration not stated), for which the Potency entry was “inactive”.
The result for `O=C(O)COc1ccc([As](=O)(O)O)cc1[N+](=O)[O-]` reads “inactive”; that for `Nc1ccccc1[As](=O)(O)c1ccccc1`, “inactive”; that for `CS(=O)(=O)c1cc([N+](=O)[O-])c2no[n+]([O-])c2c1`, “inactive”.
Consider `CCOP1(=S)c2c(C)nn(CCC#N)c2N=C(c2ccccc2F)N1C` (configuration not stated), for which the Potency entry was “inactive”.
The value for `O=P(Nc1nccs1)(Oc1ccccc1)Oc1ccccc1` was “inactive”; that for `O=P(Nc1nccs1)(c1ccccc1)c1nc2ccccc2s1` (configuration not stated) was active: 11.2 µM.
The value for `COc1cc(C2NCCC3(OCCO3)C2(C)C)cc(OC)c1OC` (configuration not stated) was “inactive”.
The value for `CCOP(=O)(Nc1cccc2ccccc12)OCC` was “inactive”; that for `CCCOP(=S)(Nc1nc(N)cc(=O)[nH]1)OCCC` was “inactive”.
With `Nc1cccc2c([As](=O)(O)O)cccc12`, the Potency result was “inactive”.
As to `Cc1cccc(OCC(=O)OC2CN3CCC2CC3)c1` (configuration not stated), the Potency result is “inactive”.
Consider `O=[As](O)(c1cccc(O)c1)c1cccc(O)c1`, for which the Potency entry is “inactive”.
The result for `O=[As](O)(O)c1cccnc1` reads “inactive”; that for `COc1cc(C(=O)NCC2(N3CCOCC3)CCCCC2)cc(Cl)c1OC(C)C`, “inactive”.
Turning to `O=C(OC1CN2CCC1CC2)c1ccc(Cl)cc1` (configuration not stated), the Potency entry was “inactive”.
The value for `O=[As](O)(c1ccccc1Br)c1ccccc1Br` was “inactive”; that for `CC(C)/C=N\N=C(\N)N[N+](=O)[O-]` was “inactive”.
In the case of `Clc1n[nH]nc1-c1nn[nH][15n]1`, the Potency entry is “inactive”.
Turning to `CC(C)(C)C(=O)NC(Sc1ncccn1)C(Cl)(Cl)Cl` (configuration not stated), the Potency result was “inactive”.
The value for `CCOP(=O)(Nc1ccc(C)cn1)OCC` was “inactive”; that for `O=P1(Nc2ccccn2)COc2ccccc2OC1` was “inactive”; that for `O=[As](O)(c1cccs1)c1cccs1` was “inactive”.
As to `Cc1ccc(OCC(=O)OC2CN3CCC2CC3)cc1` (configuration not stated), the Potency result was “inactive”.
The result for `Nc1cccc([As](=O)(O)c2ccccc2)c1` reads “inactive”; that for `O=P1(Nc2ncccn2)COc2ccccc2OC1`, “inactive”; that for `O=C(/C=C/c1ccccc1)OC1CN2CCC1CC2` (configuration not stated), “inactive”.
The value for `CN(C)C1(CNC(=O)c2ccc(S(C)(=O)=O)cc2)CCCCC1` was “inactive”; that for `Cc1nn(-c2ccccc2)c2c1P(=O)(N1CCOCC1)N(C)C(c1ccccc1)=N2` (configuration not stated) was “inactive”; that for `CC1CCC(C(C)C)C(OP(=O)(Nc2ccccn2)c2ccccc2)C1` (configuration not stated) was “inactive”.
The value for `C(Cc1nn[nH]n1)Cc1nn[nH]n1` was “inactive”; that for `Nc1ccc([As](=O)(O)c2ccc([N+](=O)[O-])cc2)cc1` was “inactive”; that for `O=C(OC1CN2CCC1CC2)c1cccc(Cl)c1` (configuration not stated) was “inactive”.
On to `O=[N+]([O-])c1ncn(CCn2cnc([N+](=O)[O-])n2)n1`, for which the Potency entry is “inactive”.
The result for `CC(=O)NC(SC(=S)N(C)C)C(Cl)(Cl)Cl` (configuration not stated) reads “inactive”.
The value for `O=[As](O)(c1ccccc1)c1ccc(O)cc1` was “inactive”; that for `O=P(Nc1nc2ccccc2s1)(c1ccccc1)c1ccccc1` was “inactive”.
The result for `C[C@H]1OP(=O)(Oc2ccccc2)[C@H](O)[C@H](O)[C@H]1N=[N+]=[N-]` (some centres not stated) reads “inactive”; that for `CN(C(=O)Cc1ccccc1)[C@H]1CC[C@@]2(CCCO2)C[C@@H]1N1CCCC1`, “inactive”; that for `O=P(Nc1ccccn1)(c1ccc(Br)cc1)c1ccc(Br)cc1`, “inactive”.
In the case of `c1nnnn1CCn1cnnn1`, the Potency result was “inactive”.
Turning to `O=P(Nc1nccs1)(c1ccccc1)c1ccccc1`, the Potency entry is “inactive”.
The value for `CC(C)C(=O)NC(Sc1ccccc1)C(Cl)(Cl)Cl` (configuration not stated) was “inactive”.
The result for `CC(=O)Nc1ccc([As](=O)(O)O)c(O)c1` reads “inactive”.
Consider `CC(=O)Nc1ccc(Oc2c([N+](=O)[O-])cc([N+](=O)[O-])cc2[N+](=O)[O-])cc1`, for which the Potency result is “inactive”.
The result for `C[C@H]1OP(=O)(Oc2ccccc2)C[C@@H]2O[C@@H]21` (some centres not stated) reads “inactive”; that for `C[C@@H]1C=CCP(=O)(Oc2ccccc2)O1` (some centres not stated), “inactive”.
In the case of `CC(C)(C)C(=O)NC(Sc1ccccc1)C(Cl)(Cl)Cl` (configuration not stated), the Potency entry is “inactive”.
In the case of `O=P1(Nc2nc3ccc(Cl)cc3s2)COc2ccccc2O1` (configuration not stated), the Potency entry was “inactive”.
The value for `CCOc1ccc(C2=NCC(CBr)S2)cc1` (configuration not stated) was “inactive”; that for `Cc1ccccc1OP(=O)(Nc1ccccn1)Oc1ccccc1C` was “inactive”; that for `O=c1c2cc([N+](=O)[O-])ccc2[nH]c2c([N+](=O)[O-])cc([N+](=O)[O-])cc12` was “inactive”.
As for `CN(C)C(=O)Oc1noc2ccccc12`, the Potency entry was “inactive”.
The result for `COC(=O)c1cc2c(s1)N=C(c1ccccc1)N(C)P2(=O)N1CCOCC1` (configuration not stated) reads “inactive”; that for `Cc1ccc(OP(=O)(Nc2ccccn2)Oc2ccc(C)cc2)cc1`, “inactive”.
On to `CC(=O)NC(SC(=S)N(CC(C)C)CC(C)C)C(Cl)(Cl)Cl` (configuration not stated), for which the Potency result is “inactive”.
As for `O=C(OC1CN2CCC1CC2)c1ccccc1` (configuration not stated), the Potency entry is “inactive”.
As for `CCC(=O)N1C2C3N(C(=O)CC)C1C1N(C(=O)CC)C(C(N1C(=O)CC)N3C(=O)CC)N2C(=O)CC`, the Potency entry was “inactive”.
The value for `O=C(NC1CCS(=O)(=O)C1)NP(=S)(Oc1ccccc1)Oc1ccccc1` (configuration not stated) was “inactive”.
The value for `CCNC(=S)/N=C(\N)N[N+](=O)[O-]` was “inactive”; that for `c1ccc(-c2nn[nH]n2)c(-c2nn[nH]n2)c1` was “inactive”.
With `CCOC(=O)NC(Sc1ccccc1)C(Cl)(Cl)Cl` (configuration not stated), the Potency result is “inactive”.
In the case of `Cc1ccc(NP(=O)(Oc2cccc(C)c2)Oc2cccc(C)c2)nc1`, the Potency result was “inactive”.
Regarding `CCN(N=Nc1nonc1N)c1nonc1N`, the Potency entry was “inactive”.
The result for `Nc1cccc2ccc([As](=O)(O)O)cc12` reads “inactive”; that for `Cc1cc(SC(NC(=O)c2ccc(F)cc2)C(Cl)(Cl)Cl)ncn1` (configuration not stated), “inactive”; that for `CCOP(=O)(Nc1ccccc1)OCC`, “inactive”.
The result for `Cc1ccc(NP(=O)(Oc2ccccc2F)Oc2ccccc2F)nc1` reads “inactive”; that for `CC(=O)Nc1ccc([As](=O)(O)O)cc1`, “inactive”; that for `O=C(O)c1ccccc1[As](=O)(O)O`, “inactive”.
Turning to `O=P(Nc1nc2ccc(Cl)cc2s1)(c1ccccc1)c1ccccc1`, the Potency entry is “inactive”.
For the molecule `Nc1cc(N)c2nonc2c1[N+](=O)[O-]`, the Potency result is “inactive”.
Regarding `CC(C)CC(=O)NC(Sc1ccc(Cl)cc1)C(Cl)(Cl)Cl` (configuration not stated), the Potency result was “inactive”.
As to `Oc1ccccc1CNc1ccccn1`, the Potency result was “inactive”.
`O=C(NC(Sc1ccncn1)C(Cl)(Cl)Cl)c1ccccc1` (configuration not stated): the Potency result was “inactive”.
The result for `COc1ccccc1OP(=O)(Nc1ccc(C)cn1)Oc1ccccc1OC` reads “inactive”; that for `Cc1ccc(OP(=O)(Nc2nccs2)Oc2ccc(C)cc2)cc1`, “inactive”; that for `Clc1ccc(Cl)c(NC2=NCC(CBr)S2)c1` (configuration not stated), “inactive”.
The value for `NC(=O)c1cc([N+](=O)[O-])cc([N+](=O)[O-])c1N` was “inactive”; that for `Cc1ccc(N/C(=N/P(=O)(N2CCOCC2)N2CCOCC2)N2CCOCC2)cc1` was “inactive”; that for `CC(C)=N/N=C(\N)N[N+](=O)[O-]` was “inactive”.
For `CC1CCN(C(=O)Oc2c(Cl)cc(Cl)c3cccnc23)CC1`, the Potency entry is “inactive”.
The result for `Nc1ccc([As](=O)(O)c2ccc(N)cc2)cc1` reads “inactive”; that for `C[N+]1=C2C=CC=CC=C2SC12C([N+](=O)[O-])=CC([N+](=O)[O-])=C[C-]2[N+](=O)[O-]` (configuration not stated), “inactive”.
The result for `CC(=O)N1C2C3N(C(C)=O)C1C1N(C(C)=O)C(C(N1C(C)=O)N3C(C)=O)N2C(C)=O` reads “inactive”.
For the molecule `O=[N+]([O-])c1cccc2n[nH]nc12`, the Potency entry is “inactive”.
The value for `Cc1ccc(NP(=O)(Oc2ccccc2)Oc2ccccc2)nc1` was “inactive”.
The result for `CCc1nc2c(n1)c1c(non1O)c1c2no[n+]1[O-]` reads active: 11.2 µM.
The result for `O=[N+]([O-])c1cccc(NC2=NCC(CBr)S2)c1` (configuration not stated) reads “inactive”.
With `O=C(O)CNc1ccc([As](=O)(O)O)cc1`, the Potency result is “inactive”.
As for `CC(C)(C)C(=O)NC(Sc1ccncn1)C(Cl)(Cl)Cl` (configuration not stated), the Potency entry is “inactive”.
The value for `O=[N+]([O-])c1ncn(CCn2ncnc2[N+](=O)[O-])n1` was “inactive”.
The value for `O=C(Nc1cc([As](=O)(O)O)ccc1O)c1ccccc1` was “inactive”.
